Measured values reported in patent US20220218832A1, “POLYMER DRUG” (BIODYNAMIC RESEARCH FOUNDATION, priority 2019, published 2022).
Read-outs that look alike come from different tables or passages of the source.

Key:
[1] = pH of lyophilized product dissolved in distilled water; type: physicochemical
[2] = Particle size by dynamic light scattering; type: physicochemical; settings: 0.1 M tris-HCl buffer (pH 8.2), 15 mg/ml, 25° C.
Procedure: Then, each solution was measured at 25° C. by a light scattering apparatus, Model ELSZ⋅2000ZS manufactured by Otsuka Electronics (Photal Inc., Osaka).

[3] = 15 mg/kg boric acid equivalent i.v., 24 hours
[4] = Surface charge (Zeta potential); type: physicochemical; settings: deionized water, 20 mg/ml
[5] = buffers pH 5.0, 6.0, 7.4; 37° C.
[6] = S180 tumor, ddY mice, 15 mg/kg i.v., 24 hours, 10B by ICP MS
[7] = 30 mg/kg (boric acid equivalent) i.v., monitored 30 days
[8] = average of 30 particles

## SMA-glucosamine-boric acid complex [SGB]
[1]
  Intrinsic pH in solution of lyophilized product in distilled water: 7.2
[2]
  Average particle size (dynamic light scattering method) in diameter: 95 ± 5 nm
[3]
  Urinary excretion compared with free boric acid: excreted much less in urine than free boric acid
HeLa cells
  Cytotoxicity (cell viability, MTT): very potent cytotoxicity
[4]
  Surface charge (Zeta potential): −37 mV
[5]
  Release of boric acid: most quickly released at acidic pH 5.0
[6]
  Accumulation in tumor sites compared with free boric acid: significantly more accumulated in the tumor sites than free boric acid
[7]
  Body weight: a little weight loss on 2 to 4 days, but it was recovered on 5 to 6 days
  Toxicity: No serious toxicity
Colon cancer C26 cells
  Cytotoxicity (cell viability, MTT): very potent cytotoxicity
[8]
  Average particle size by transmission electron microscope (dried state): 85±5.5 nm
[8]; listed as SMA-glucosamine-boric acid complex(SGB)
  Average particle size by transmission electron microscope (dried state): About 85 nm
